# From patent publication US8828925B2, “Etoposide and doxorubicin conjugates for drug delivery” (Angiochem Inc., priority 2008, dated 2014)
# Test system: mouse brain
# Assay: in situ brain perfusion (brain uptake)
substance,measurement,value
(Etoposide-4′-Dimethylglycine-2″-Glutaric)3-Angiopep-2 Conjugate [EtopDMG-An2(3:1)],Brain Kin,0.0014 mL/s/g
